In this assay the target is LRRK2(G2019S mutation, GST-LRRK2(amino acids 970-2527)) (Homo sapiens, UniProt Q5S007, G2019S). In words: LRRK2 Km ATP LanthaScreen Assay. The class given is biochemical. The settings on record: read-out: LRRK2 IC50, mean IC50 values. (In general: In TR-FRET formats the signal depends on donor and acceptor labels being close together.)

Amino acid sequences for entries named in this document (tags omitted). Residues count along the entry.
UniProt Q5S007, 970-2527 G2019S limits assumed: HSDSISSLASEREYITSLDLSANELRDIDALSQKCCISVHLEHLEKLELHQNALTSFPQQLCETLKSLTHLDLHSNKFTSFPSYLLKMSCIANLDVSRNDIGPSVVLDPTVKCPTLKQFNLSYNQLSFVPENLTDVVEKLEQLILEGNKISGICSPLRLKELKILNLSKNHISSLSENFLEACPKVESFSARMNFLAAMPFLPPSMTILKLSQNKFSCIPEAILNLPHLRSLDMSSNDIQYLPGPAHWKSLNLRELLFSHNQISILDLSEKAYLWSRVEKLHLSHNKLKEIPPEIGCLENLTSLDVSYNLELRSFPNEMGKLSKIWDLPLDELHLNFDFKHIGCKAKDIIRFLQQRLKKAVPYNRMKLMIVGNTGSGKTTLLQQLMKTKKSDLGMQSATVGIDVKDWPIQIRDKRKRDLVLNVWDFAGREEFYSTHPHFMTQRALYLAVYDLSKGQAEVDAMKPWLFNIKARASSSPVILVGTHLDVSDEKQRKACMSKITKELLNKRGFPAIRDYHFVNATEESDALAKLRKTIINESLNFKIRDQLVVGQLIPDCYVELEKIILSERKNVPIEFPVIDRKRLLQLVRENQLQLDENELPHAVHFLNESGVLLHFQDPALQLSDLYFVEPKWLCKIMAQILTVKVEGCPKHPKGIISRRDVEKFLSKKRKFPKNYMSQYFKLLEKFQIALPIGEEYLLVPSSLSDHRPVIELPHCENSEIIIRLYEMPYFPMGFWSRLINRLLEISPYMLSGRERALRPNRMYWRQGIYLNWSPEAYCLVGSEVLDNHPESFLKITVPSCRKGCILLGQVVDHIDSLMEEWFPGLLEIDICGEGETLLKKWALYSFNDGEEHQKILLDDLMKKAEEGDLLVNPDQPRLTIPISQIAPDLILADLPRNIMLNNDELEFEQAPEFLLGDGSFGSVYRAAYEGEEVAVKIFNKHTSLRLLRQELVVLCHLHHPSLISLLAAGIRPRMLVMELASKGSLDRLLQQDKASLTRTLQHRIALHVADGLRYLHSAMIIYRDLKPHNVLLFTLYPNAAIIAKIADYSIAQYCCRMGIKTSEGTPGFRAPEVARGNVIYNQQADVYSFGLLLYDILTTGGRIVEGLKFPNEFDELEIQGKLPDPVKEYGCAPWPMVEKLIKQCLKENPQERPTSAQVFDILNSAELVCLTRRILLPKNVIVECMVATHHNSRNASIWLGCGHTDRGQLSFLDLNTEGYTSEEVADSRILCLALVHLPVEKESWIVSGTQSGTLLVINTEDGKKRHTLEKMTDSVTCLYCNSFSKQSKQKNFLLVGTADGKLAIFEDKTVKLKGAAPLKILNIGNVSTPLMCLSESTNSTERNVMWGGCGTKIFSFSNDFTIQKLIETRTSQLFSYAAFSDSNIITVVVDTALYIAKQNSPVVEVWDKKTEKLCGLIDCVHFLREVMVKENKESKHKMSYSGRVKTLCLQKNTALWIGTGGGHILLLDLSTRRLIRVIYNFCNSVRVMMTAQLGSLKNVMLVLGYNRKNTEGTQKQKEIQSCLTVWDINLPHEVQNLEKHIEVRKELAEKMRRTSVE

As usually defined, the IC50 is the concentration at which inhibition is half-maximal. On to `CCOc1ccc2[nH]nc(-c3ccnc(N4CC[C@H](OC)C4)c3)c2c1`, for which the 50% inhibitory concentration (IC50) stood at 18.8 nM.

Values taken from patent publication US9440952B2, “Compounds inhibiting leucine-rich repeat kinase enzyme activity” (Merck Sharp & Dohme Corp., priority 2013, dated 2016).
